This is an account of results in patent US10040791B2, “Isoxazole derivative as mutant isocitrate dehydrogenase 1 inhibitor” (Daiichi Sankyo Company, Limited, priority 2014, dated 2018).

Chains of the proteins cited; added tags and fusions are not shown.
UniProt O75874, whole entry R132H: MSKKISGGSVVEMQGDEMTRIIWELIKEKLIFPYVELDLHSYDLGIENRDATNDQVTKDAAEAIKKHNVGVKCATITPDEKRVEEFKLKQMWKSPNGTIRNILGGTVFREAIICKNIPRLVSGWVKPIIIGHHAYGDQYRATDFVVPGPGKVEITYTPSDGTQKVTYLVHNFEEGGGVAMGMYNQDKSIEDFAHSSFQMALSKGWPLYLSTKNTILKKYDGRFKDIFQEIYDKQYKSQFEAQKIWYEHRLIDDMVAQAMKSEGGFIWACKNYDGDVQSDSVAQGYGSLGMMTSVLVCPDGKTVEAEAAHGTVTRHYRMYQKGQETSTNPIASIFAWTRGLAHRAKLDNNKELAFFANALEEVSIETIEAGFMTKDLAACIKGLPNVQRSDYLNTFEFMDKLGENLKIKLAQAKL

pIC50: −log10 of the molar value.

For this test, the target named is IDH1R132H (Homo sapiens (Human), UniProt O75874, R132H). The test can be described thus: Inhibitory activity against IDH1R132H enzyme (NADPH detection, WST-8). The class given is biochemical. The settings on record: 12 nM, residual NADPH detected with WST-8, read-out: Test Example 1 IDH1 R132H IC50. A general note: Formazan colour is commonly taken as a measure of viable cells.
Broadly, the pIC50 is the IC50 on a negative log10 scale, so that one unit is a factor of ten. On to `C=CC(=O)N1CCN(c2onc(-c3c(Cl)cccc3Cl)c2C(=O)n2ccc3c(/C=C/C(=O)O)cccc32)[C@@H](C)C1` [Example 145, (2E)-3-[1-({5-[(2S)-4-Acryloyl-2-methylpiperazin-1-yl]-3-(2,6-dichlorophenyl)-1,2-oxazol-4-yl}carbonyl)-1H-indol-4-yl]prop-2-enoic acid], for which the pIC50 was 7.10.
Regarding `Cc1cc(Cl)cc(Cl)c1-c1noc(C(C)(C)C)c1C(=O)n1ccc2c(/C=C/C(=O)O)cccc21` [Example 41, (2E)-3-(1-{[5-(tert-Butyl)-3-(2,4-dichloro-6-methylphenyl)-1,2-oxazol-4-yl]carbonyl}-1H-indol-4-yl)prop-2-enoic acid], the pIC50 was 7.28.
The result for `COC1(c2onc(-c3c(Cl)cc(Cl)cc3Cl)c2C(=O)n2cc(C)c3c(/C=C/C(=O)O)cccc32)CC1` [Example 57, (2E)-3-(1-{[5-(1-Methoxycyclopropyl)-3-(2,4,6-trichlorophenyl)-1,2-oxazol-4-yl]carbonyl}-3-methyl-1H-indol-4-yl)prop-2-enoic acid] reads 8.00; that for `CC(C)(F)c1onc(-c2ccc(Cl)cc2Cl)c1C(=O)n1cc2c3c(cccc31)/C(=C/C(=O)O)CC2` [Example 69, (2E)-[1-{[3-(2,4-Dichlorophenyl)-5-(2-fluoropropan-2-yl)-1,2-oxazol-4-yl]carbonyl}-3,4-dihydrobenzo[cd]indol-5(1H)-ylidene]ethanoic acid], 7.74.
Take `C=CC(=O)N1CC(c2onc(-c3c(Cl)cc(Cl)cc3Cl)c2C(=O)n2ccc3c(/C=C/C(=O)O)cccc32)C1` [Example 95]: the pIC50 was 8.22.
Consider `C=CC(=O)N1CCC(COC)(c2onc(-c3c(Cl)cc(Cl)cc3Cl)c2C(=O)n2ccc3c(/C=C/C(=O)O)cccc32)CC1` [Example 120], for which the pIC50 is 6.92.
Under `C=CC(=O)N1CCN(c2onc(-c3c(Cl)cccc3Cl)c2C(=O)n2ccc3c(/C=C/C(=O)O)cccc32)C2(CC2)C1` [Example 147, (2E)-3-(1-{[5-[7-Acryloyl-4,7-diazaspiro[2.5]oct-4-yl]-3-(2,6-dichlorophenyl)-1,2-oxazol-4-yl]carbonyl}-1H-indol-4-yl)prop-2-enoic acid] stands 7.70.
The result for `COC1(c2onc(-c3c(F)cc(Cl)cc3Cl)c2C(=O)n2cc(C)c3c(/C=C/C(=O)O)cccc32)CCC1` [Example 14, (2E)-3-(1-{[3-(2,4-Dichloro-6-fluorophenyl)-5-(1-methoxycyclobutyl)-1,2-oxazol-4-yl]carbonyl}-3-methyl-1H-indol-4-yl]prop-2-enoic acid] reads 7.85; that for `CC1(c2onc(-c3c(Cl)cc(Cl)cc3Cl)c2C(=O)n2cc3c4c(cccc42)/C(=C/C(=O)O)CC3)CC(F)(F)C1` [Example 19], 7.80.
As to `Cc1cn(C(=O)c2c(-c3c(F)cccc3Cl)noc2C(C)(C)F)c2cccc(/C=C/C(=O)O)c12` [Example 52, (2E)-3-(1-{[3-(2-Chloro-6-fluorophenyl)-5-(2-fluoropropan-2-yl)-1,2-oxazol-4-yl]carbonyl}-3-methyl-1H-indol-4-yl)prop-2-enoic acid], the pIC50 is 7.77.
Turning to `O=C(O)/C=C/c1cccc2c1ccn2C(=O)c1c(-c2c(Cl)cccc2Cl)noc1N1CCCC1` [Example 135, (2E)-3-(1-{[3-(2,6-Dichlorophenyl)-5-(pyrrolidin-1-yl)-1,2-oxazol-4-yl]carbonyl}-1H-indol-4-yl)prop-2-enoic acid], the pIC50 is 7.85.
Under `C=CC(=O)N1CC2(CC2)N(c2onc(-c3c(Cl)cccc3OC)c2C(=O)n2ccc3c(/C=C/C(=O)O)cccc32)C[C@H]1C` [Example 158, (2E)-3-[1-({5-[(6R)7-Acryloyl-6-methyl-4,7-diazaspiro[2.5]oct-4-yl]-3-(2-chloro-6-methoxyphenyl)-1,2-oxazol-4-yl}carbonyl)-1H-indol-4-yl]prop-2-enoic acid] stands 7.19.
`CC1(c2onc(-c3c(Cl)cc(Cl)cc3Cl)c2C(=O)n2ccc3c(/C=C/C(=O)O)ccnc32)COC1` [Example 9, (2E)-3-(1-{[5-(3-Methyloxetan-3-yl)-3-(2,4,6-trichlorophenyl)-1,2-oxazol-4-yl]carbonyl}-1H-pyrrolo[2,3-b]pyridin-4-yl]prop-2-enoic acid]: the pIC50 was 7.55.
Turning to `Cc1cn(C(=O)c2c(-c3c(Cl)cc(C4CC4)cc3Cl)noc2C(C)(C)F)c2cccc(/C=C/C(=O)O)c12` [Example 70, (2E)-3-(1-{[3-(2,6-Dichloro-4-cyclopropylphenyl)-5-(2-fluoropropan-2-yl)-1,2-oxazol-4-yl]carbonyl}-3-methyl-1H-indol-4-yl)prop-2-enoic acid], the pIC50 is 7.80.
For the molecule `CC(C)(O)c1onc(-c2c(Cl)cccc2Cl)c1C(=O)n1ccc2c(/C=C/C(=O)O)cccc21` [Example 7, (2E)-3-(1-{[3-(2,6-Dichlorophenyl)-5-(2-hydroxypropan-2-yl)-1,2-oxazol-4-yl]carbonyl}-1H-indol-4-yl)prop-2-enoic acid], the pIC50 was 7.96.
In the case of `C=CC(=O)N1CCC(c2onc(-c3c(Cl)cc(Cl)cc3Cl)c2C(=O)n2ccc3c(/C=C(\C)C(=O)O)cccc32)CC1` [Example 116], the negative-log IC50 (pIC50) is 6.36.
Under `C=CC(=O)N1CCN(c2onc(-c3c(Cl)cc(Cl)cc3Cl)c2C(=O)n2ccc3c(/C=C/C(=O)O)cccc32)CC1` [Example 143, (2E)-3-(1-{[5-(4-Acryloylpiperazin-1-yl)-3-(2,4,6-trichlorophenyl)-1,2-oxazol-4-yl]carbonyl}-1H-indol-4-yl)prop-2-enoic acid] stands 6.94; under `C=CC(=O)N1CC(C)(c2onc(-c3c(Cl)cc(Cl)cc3Cl)c2C(=O)n2ccc3c(/C=C/C(=O)O)cccc32)C1` [Example 98], 7.72.
`CCN(CC)c1onc(-c2c(Cl)cccc2Cl)c1C(=O)n1ccc2c(/C=C/C(=O)O)cccc21` [Example 134, (2E)-3-(1-{[3-(2,6-Dichlorophenyl)-5-(diethylamino)-1,2-oxazol-4-yl]carbonyl}-1H-indol-4-yl)prop-2-enoic acid]: the pIC50 was 7.51.
Consider `CC(C)c1onc(-c2c(Cl)cc(Cl)cc2Cl)c1C(=O)n1ccc2c(/C=C/C(=O)O)cccc21` [Example 26, (2E)-3-(1-{[5-(Propan-2-yl)-3-(2,4,6-Trichlorophenyl)-1,2-oxazol-4-yl]carbonyl}-1H-indol-4-yl)prop-2-enoic acid], for which the pIC50 was 7.42.
Under `CC(C)(C)c1noc(-c2c(Cl)cc(Cl)cc2Cl)c1C(=O)n1ccc2c(/C=C/C(=O)O)cccc21` [Example 34, (2E)-3-(1-{[3-(tert-Butyl)-5-(2,4,6-trichlorophenyl)-1,2-oxazol-4-yl]carbonyl}-1H-indol-4-yl)prop-2-enoic acid] stands 7.28; under `Cc1cn(C(=O)c2c(-c3c(F)cc(Cl)cc3F)noc2C(C)(C)F)c2cccc(/C=C/C(=O)O)c12` [Example 54, (2E)-3-(1-{[3-(4-Chloro-2,6-difluorophenyl)-5-(2-fluoropropan-2-yl)-1,2-oxazol-4-yl]carbonyl}-3-methyl-1H-indol-4-yl)prop-2-enoic acid], 7.77; under `C=CC(=O)N1C[C@@H](C)N(c2onc(-c3c(Cl)cc(Cl)cc3Cl)c2C(=O)n2ccc3c(/C=C/C(=O)O)cccc32)C[C@H]1C` [Example 152, (2E)-3-[1-({5-[(2R,5R)-4-Acryloyl-2,5-dimethylpiperazin-1-yl]-3-(2,4,6-trichlorophenyl)-1,2-oxazol-4-yl}carbonyl)-1H-indol-4-yl]prop-2-enoic acid], 6.84.
The result for `C=CC(=O)N1C[C@@H](C)N(c2onc(-c3c(Cl)cccc3Cl)c2C(=O)n2ccc3c(/C=C/C(=O)O)cccc32)C2(CC2)C1` [Example 159, (2E)-3-[1-({5-[(5R)7-Acryloyl-5-methyl-4,7-diazaspiro[2.5]oct-4-yl]-3-(2,6-dichlorophenyl)-1,2-oxazol-4-yl}carbonyl)-1H-indol-4-yl]prop-2-enoic acid] reads 7.96; that for `CN(C)C1(c2onc(-c3c(Cl)cc(Cl)cc3Cl)c2C(=O)n2cc3c4c(cccc42)/C(=C/C(=O)O)CC3)CC1` [Example 92], 8.00.
Turning to `COC1(c2onc(-c3c(Cl)cccc3Cl)c2C(=O)n2ccc3c(/C=C/C(=O)O)cccc32)COC1` [Example 76, (2E)-3-(1-{[3-(2,6-Dichlorophenyl)-5-(3-methoxyoxetan-3-yl)-1,2-oxazol-4-yl]carbonyl}-1H-indol-4-yl)prop-2-enoic acid], the pIC50 is 8.22.
The result for `O=C(O)/C=C/c1cccc2c1ccn2C(=O)c1c(-c2c(Cl)cc(Cl)cc2Cl)noc1C1(F)COC1` [Example 6, (2E)-3-(1-{[5-(3-Fluorooxetan-3-yl)-3-(2,4,6-trichlorophenyl)-1,2-oxazol-4-yl]carbonyl}-1H-indol-4-yl)prop-2-enoic acid] reads 7.77.
As to `CC(C)(F)c1onc(-c2ccc(Cl)c(F)c2Cl)c1C(=O)n1cc2c3c(cccc31)/C(=C/C(=O)O)CC2` [Example 20, (2E)-[1-{[3-(2,4-Dichloro-3-fluorophenyl)-5-(2-fluoropropan-2-yl)-1,2-oxazol-4-yl]carbonyl}-3,4-dihydrobenzo[cd]indol-5(1H)-ylidene]ethanoic acid], the pIC50 is 7.57.
For the molecule `Cc1cc(Cl)c(-c2noc(C(C)(C)C)c2C(=O)n2ccc3c(/C=C/C(=O)O)cccc32)c(Cl)c1` [Example 38, (2E)-3-(1-{[5-(tert-Butyl)-3-(2,6-dichloro-4-methylphenyl)-1,2-oxazol-4-yl]carbonyl}-1H-indol-4-yl)prop-2-enoic acid], the pIC50 is 7.47.
Regarding `C=CC(=O)N1C[C@@H](C)N(c2onc(-c3c(Cl)cccc3Cl)c2C(=O)n2ccc3c(/C=C/C(=O)O)cccc32)[C@@H](C)C1` [Example 144, (2E)-3-(1-{[5-(4-Acryloyl-cis-2,6-dimethylpiperazin-1-yl)-3-(2,6-dichlorophenyl)-1,2-oxazol-4-yl]carbonyl}-1H-indol-4-yl)prop-2-enoic acid], the pIC50 was 7.15.
Under `Cc1cn(C(=O)c2c(-c3c(Cl)cc(Cl)cc3Cl)noc2C2(C(=O)N(C)C)CCC2)c2cccc(/C=C/C(=O)O)c12` [Example 89, (2E)-3-(1-{[5-[1-(Dimethylcarbamoyl)cyclobutyl]-3-(2,4,6-trichlorophenyl)-1,2-oxazol-4-yl]carbonyl}-3-methyl-1H-indol-4-yl)prop-2-enoic acid] stands 7.30.
